The chains behind the UniProt entries cited, without tags or fusion partners. A line that says so, or that is headed by a name, gives the form on record, which may keep a tag or linker.
UniProt P15692, other isoform, or with tags, fused parts or gaps limits assumed: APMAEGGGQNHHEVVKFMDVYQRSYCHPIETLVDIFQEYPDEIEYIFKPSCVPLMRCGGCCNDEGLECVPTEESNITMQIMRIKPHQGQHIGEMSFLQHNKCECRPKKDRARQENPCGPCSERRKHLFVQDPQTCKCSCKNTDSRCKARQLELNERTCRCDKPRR

According to US20100189719A1 (published 2010):

Molecular target: human VEGF (hVEGF) (human, UniProt P15692-4 27-191, limits assumed)
Assay: kinetics of FIG. 32 (SPR); exponent as printed

B1: G6-23 Fab (Fab, V domains shown)
VH: EVQLVESGGGLVQPGGSLRLSCAASGFTISDYWIHWVRQAPGKGLEWVAGITPAGGYTYYADSVKGRFTISADTSKNTAYLQMNSLRAEDTAVYYCARFVFFLPYAMDYWGQGTLVTVSS
VL: DIQMTQSPSSLSASVGDRVTITCRASQDVSTAVAWYQQKPGKAPKLLIYSASFLYSGVPSRFSGSGSGTDFTLTISSLQPEDFATYYCKQGYANPWTFGQGTKVEIKR
notes: also called Fab-G6-23; FabG6-23
**Q.** For B1, which koff is on record?
**A.** 10000 s⁻¹
